Where a name gives a salt, the structure may show the parent alone. Read-outs that look alike come from different tables or passages of the source.
What was measured:
primary rat microglia [1] = tested on: primary rat microglia;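 as to Fibrin % cell toxicity: share of dead cells sized under 150 µm2 at 10 µM in fibrin-stimulated microglia HTS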
primary rat microglia [2] = tested on: primary rat microglia; remark: listed apart in the source;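 as to Fibrin % cell toxicity: share of dead cells sized under 150 µm2 at 10 µM in fibrin-stimulated microglia HTS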
[3] = tested on: fibrin-induced microglia activation; assay: Image-based assay of fibrin-induced microglia activation (HTS and dose response)
[4] = tested on: LPS-induced microglia activation; assay: Image-based assay of LPS-induced microglia activation (HTS and dose response); settings: Rattus norvegicus

Molecule	LPS % cell toxicity (primary rat microglia [1]; rat)	Fibrin % cell toxicity (primary rat microglia [2]; rat)	also measured
CC(C)C[C@H](CN)CC(=O)O [Pregabalin]	0%	1%	–
CC(=O)Oc1c(C)c(C)c2c(c1C)CCC(C)(CCCC(C)CCCC(C)CCCC(C)C)O2 (stereo not drawn) [Alpha-tochopheryl Acetate]	–	–	LPS % cell toxicity (primary rat microglia [1]): 0%; Fibrin % cell toxicity (primary rat microglia [2]): 1%
CN1CCc2cccc3c2[C@H]1Cc1ccc(O)c(O)c1-3.Cl [R(−)-Apomorphine hydrochloride, reference compound]	–	–	LPS % cell toxicity (primary rat microglia [1]): 0%
C[C@]12CC[C@H](O)CC1=CC[C@@H]1[C@@H]2CC[C@]2(C)C(=O)CC[C@@H]12 [Prasterone]	0%	–	–
CC(=O)[C@@]1(O)CC[C@H]2[C@@H]3C=C(Cl)C4=CC(=O)[C@@H]5C[C@@H]5[C@]4(C)[C@H]3CC[C@@]21C [Cyproterone, reference compound]	–	–	IC50 ([3]; read-out: Fibrin IC50 (uM) (Suppl. Table 7), fibrin-induced microglia activation, dose response): 17 µM; IC50 ([3]; read-out: Fibrin IC50, Table 1, dose response 0.001-20 μM, triplicates, primary rat microglia, 48 h): 17 µM; IC50 ([3]; read-out: Fibrin IC50, dose response, fibrin-induced microglia activation): 17 µM
CC1=C(/C=C/C(C)=C/C=C/C(C)=C/C=C/C=C(C)/C=C/C=C(C)/C=C/C2=C(C)CCCC2(C)C)C(C)(C)CCC1 [Beta-carotene]	0%	–	–
OCCN(CCO)c1nc(N2CCCCC2)c2nc(N(CCO)CCO)nc(N3CCCCC3)c2n1 [Dipyridamole]	–	1%	–
podophyllotoxin acetate	–	–	IC50 ([3]; read-out: fib_IC50, Table 7): 0.022 µM
Cc1cccc(N(C)C(=S)Oc2ccc3ccccc3c2)c1 [Tolnaftate, reference compound]	–	–	IC50 ([4]; 48 h, read-out: LPS IC50, Table 1, dose response 0.001-20 μM, triplicates, primary rat microglia, 48 h): 17 µM; IC50 ([4]; read-out: LPS IC50 (uM) (Suppl. Table 7), LPS-induced microglia activation, dose response): 17 µM; IC50 ([4]; read-out: LPS IC50 (uM) (Suppl. Table 7), Table 3): 17 µM; IC50 ([4]; read-out: LPS IC50 (uM), dose response, LPS-induced microglia activation): 17 µM
C[C@]12CC[C@@H]3c4ccc(O)cc4CC[C@H]3[C@@H]1C[C@@H](O)[C@@H]2O [Estriol]	1%	1%	–
[H]/N=C(/N)N/C(=N/[H])NCCc1ccccc1 [Phenformin]	0%	–	–
C[C@H]1C[C@@H]2[C@H]([C@@H](O)C[C@@]3(C)[C@H]2CC[C@]3(O)C(=O)CO)[C@@]2(C)C=CC(=O)C=C12 [Methylprednisolone, reference compound]	–	–	Fibrin Selectivity [3]: 15; Fibrin Selectivity (LOG10) [3]: 1.19
NC(=O)c1ncn([C@@H]2O[C@H](CO)[C@@H](O)[C@H]2O)n1 [Ribavirin, reference compound]	–	2%	Fibrin Selectivity [3]: 2; Fibrin Selectivity (LOG10) [3]: 0.29
CC1(C)S[C@@H]2[C@H](NC(=O)[C@H](N)c3ccc(O)cc3)C(=O)N2[C@H]1C(=O)O [Amoxicillin]	0%	–	–
CCC1(c2ccccc2)C(=O)NCNC1=O [Primidone]	0%	–	–
CC(=O)O[C@]1(C(C)=O)CC[C@H]2[C@@H]3C=C(Cl)C4=CC(=O)CC[C@]4(C)[C@H]3CC[C@@]21C [Chlormadinone acetate, reference compound]	–	–	IC50 ([3]; Rattus norvegicus, Microglia, 48 h, read-out: Fibrin IC50, Table 1, dose response 0.001-20 μM, triplicates, primary rat microglia, 48 h): 17 µM; IC50 ([3]; Rattus norvegicus, Microglia, read-out: Fibrin IC50 (uM) (Suppl. Table 7), fibrin-induced microglia activation, dose response): 17 µM; IC50 ([3]; Rattus norvegicus, Microglia, read-out: Fibrin IC50 (uM), dose response, fibrin-induced microglia activation): 17 µM

Molecule	LPS % cell toxicity (primary rat microglia [1]; rat)	Fibrin % cell toxicity (primary rat microglia [2]; rat)	also measured
CN(N=O)C(=O)N[C@@H](C=O)[C@@H](O)[C@H](O)[C@H](O)CO [Streptozocin]	–	0%	–
C[C@]12CCC(=O)C=C1CC[C@@H]1[C@@H]2[C@@H](O)C[C@@]2(C)[C@H]1CC[C@]2(O)C(=O)CO [Hydrocortisone, reference compound]	–	–	Fibrin Selectivity (LOG10) [3]: 2.75
Hydrocortisone hemisuccinate [reference compound]	–	–	Fibrin Selectivity [3]: 350; Fibrin Selectivity (LOG10) [3]: 2.54
O=C(CCBr)N1CCN(C(=O)CCBr)CC1 [Pipobroman]	–	0%	–
CN1CCN2c3ccccc3Cc3ccccc3C2C1 (stereo not shown) [Mianserin]	0%	0%	–
O=C1[O][Pt]2([NH][C@@H]3CCCC[C@H]3[NH]2)[O]C1=O [Oxaliplatin, reference compound]	–	–	Fibrin Selectivity [3]: 3; Fibrin Selectivity (LOG10) [3]: 0.48
O=C(CCCN1CC=C(n2c(=O)[nH]c3ccccc32)CC1)c1ccc(F)cc1 [Droperidol]	1%	1%	–
C[C@H](N)[C@H](O)c1ccccc1.Cl	–	–	LPS % cell toxicity (primary rat microglia [1]): 0%; Fibrin % cell toxicity (primary rat microglia [2]): 1%
C[C@]12CC[C@H]3[C@@H](CCC4=CC(=O)CC[C@@]43C)[C@@H]1CC[C@@H]2O [Testosterone]	0%	–	–
CC[C@H](C)C(=O)O[C@H]1C[C@@H](C)C=C2C=C[C@H](C)[C@H](CC[C@@H]3C[C@@H](O)CC(=O)O3)[C@H]21 [Lovastatin]	2%	–	–
CNCC[C@@H](Oc1ccccc1C)c1ccccc1 [Atomoxetine Hydrochloride]	1%	–	–
C[C@]12CC[C@@H]3c4ccc(O)cc4CC[C@H]3[C@@H]1C[C@H](O)[C@@H]2O [Epiestriol]	0%	0%	–
Benzalkonium Chloride	–	–	Fibrin % inhibition ([3]; primary microglia HTS, fibrin stimulation, increased cell size (>800 μm^2) as marker of activation): 112%
CC(N)C(O)c1ccccc1 (stereo not shown) [Phenylpropanolamine]	1%	1%	–
NC(N)=Nc1nc(CSCCC(N)=NS(N)(=O)=O)cs1 [Famotidine]	0%	–	–
Cc1c(C(N)=O)cc([N+](=O)[O-])cc1[N+](=O)[O-] [Dinitolmide]	–	1%	–

— patent US20210330611A1, “THERAPY FOR NEUROLOGICAL DISEASES/DISORDERS” (priority 2020, published 2021)
